For assay [1], the target named is T1, Alpha-1A adrenergic receptor (Rattus norvegicus) (UniProt P43140).
T1 sequence (whole entry): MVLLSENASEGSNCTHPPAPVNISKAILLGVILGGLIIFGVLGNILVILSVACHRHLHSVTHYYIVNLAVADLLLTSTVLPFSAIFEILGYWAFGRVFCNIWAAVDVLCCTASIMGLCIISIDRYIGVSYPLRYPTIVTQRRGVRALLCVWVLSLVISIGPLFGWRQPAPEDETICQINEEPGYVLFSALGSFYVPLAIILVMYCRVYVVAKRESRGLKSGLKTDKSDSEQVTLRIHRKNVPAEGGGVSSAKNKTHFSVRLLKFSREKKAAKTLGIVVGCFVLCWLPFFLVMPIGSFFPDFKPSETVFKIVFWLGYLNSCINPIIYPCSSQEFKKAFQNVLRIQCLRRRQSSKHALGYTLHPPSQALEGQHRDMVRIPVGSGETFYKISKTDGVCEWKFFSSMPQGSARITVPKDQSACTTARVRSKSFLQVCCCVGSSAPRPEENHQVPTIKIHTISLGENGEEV
Description: In vitro affinity for Alpha-1a adrenergic receptor in isolated rat prostate tissue preparations was determined by functional assay. It is filed as tissue-based. The settings on record: Prostate gland.

The target of assay [2] is T1, Alpha-1A adrenergic receptor (Rattus norvegicus). Description: In vitro affinity for Alpha-1a adrenergic receptor in isolated rat aorta preparations was determined by functional assay. It is filed as tissue-based.

Structures are written as SMILES.

With `COc1cc2nc(N3CCN(C(=O)C4CCCO4)CC3)nc(N)c2cc1OC` (configuration not stated) [TERAZOSIN], the values for the Kb in assay [1] and in assay [2] were 27 nM and 19 nM, respectively.

These data come from ChEMBL document CHEMBL1131394, “Design and synthesis of N-alkylated saccharins as selective alpha-1a adrenergic receptor antagonists” (Bioorg Med Chem Lett, 1998).
